Several values for one entry are separate records, joined by “and”; a condition that tells them apart may be missing. Identical values can stand only once.

For this assay, the system named is testosterone. Nature of the assay: Hormone determination: serum testosterone in SLE study. In kind it is in vivo, human. Particulars: 200 mg/day DHEA, 24 weeks.

`C[C@]12CC[C@H](O)CC1=CC[C@@H]1[C@@H]2CC[C@]2(C)C(=O)CC[C@@H]12` [DHEA, dehydroepiandrosterone]: the “Testosterone change at last visit, mean” value (baseline mean 29, P < 0.05 vs placebo) is 46.6 ng/dL and 47 ng/dL. For the setting “baseline median 28”, the “Testosterone change at last visit, median” value was 39.5 ng/dL and 40 ng/dL.

The values above are taken from US20050014734A1, “Modulation of interleukin-10 by DHEA” (Genovate Biotechnology Co., Ltd., priority 2003, published 2005).
